Patent US8729097B2, “Quinoline compounds as inhibitors of angiogenesis, human methionine aminopeptidase, and SIRT1, and methods of treating disorders” (The Johns Hopkins University, priority 2008, dated 2014)

What was measured:
[1] = test system: HUVEC; assay: Senescence associated-β-galactosidase (SA-β-gal) staining in HUVEC; details: 5 days, single compound or drug combination
[2] = test system: acetylation of p53 (K382), α-tubulin and histone-H3; assay: Acetylation status of sirtuin substrates in HUVEC (Western blot)
[3] = test system: HUVEC; assay: Endothelial cell tube formation assay; details: Matrigel; EX527 1 μM, TNP470 10 nM

`NC(=O)C1CCCc2c1[nH]c1ccc(Cl)cc21` (stereo not shown) was tested, and the “premature senescence in HUVEC” value [1] was “induced premature senescence”, the “acetylation of p53-K382, single agent” value [2] was “slightly induced acetylation of p53-K382” and the “acetylation of tubulin and histone-H3 in the presence of TSA” value ([2]; with TSA (200 nM), 24 h, nitroxoline 20 μM) was “did not increase acetylation of tubulin or histone-H3”. The HUVEC tube formation [3] was “inhibited the tube formation”.
